Marks after values point to notes of the source that are not given here.
Tests used:
[1] = system: estrogen receptor (ERE) and BMP receptor (BRE); test: Ratio ERE stimulation/BRE stimulation (ERE/BRE ratio) in KS483 cells; format: cell-based, mouse
Procedure: Mouse pre-osteoblastic cell line KS483 was maintained in phenol red-free α-MEM containing 10% non-charcoal-treated FBS and penicillin/streptomycin. Cells were seeded in 24-well plates at a density of 1.6x10^4 cells/well, and cultured in phenol red-free α-MEM supplemented with penicillin/streptomycin and 10% charcoal-treated FBS. After 24 hours, cells were transiently transfected with 0.25 µg luciferase reporter (see below) using a lipid-based FuGENE 6 transfection reagent according to the manufacturer's recommendations (Roche, Almere, Netherlands). Cells were transfected with luciferase reporter, i.e. either estrogen-receptor-responsive element (ERE-Luciferase) or BMP-receptor-responsive element (BRE-Luciferas), hereinafter jointly referred to as luciferase reporter. Transfection efficiency was measured by co-transfection of 25 ng of SV40-Renilla control vector.. […] Luciferase activity was determined by measuring bioluminescence. Luciferase activity was expressed as fold induction ± SEM, which was corrected for transfection efficiency using sv40-renilla luciferase activity. The measured luciferase activity is indicative for the extent of stimulation of the estrogen receptor or BMP receptor by the test component. Subsequently the ratio ERE stimulation/BRE stimulation (ERE/BRE ratio) was determined, which is indicative for the estrogenic effects of the test component (Table 3).

[2] = system: KS483 (mouse pre-osteoblastic cell line); test: Calcium deposition in KS483 cells (cresolphthalein complexon method); format: cell-based; settings: 18 days, compared to control levels
Procedure: KS483 (mouse pre-osteoblastic cell line, Leids Universitair […] Centrum, Leiden, The Netherlands) was maintained in phenol red-free alpha-minimum essential medium (α-MEM) containing 10% non-charcoal-treated fetal bovine serum (FBS) and penicillin/streptomycin. Cells were seeded in 12-well plates at a density of 4.5x10^4 cells/well, and cultured in phenol red-free α-MEM supplemented with penicillin/streptomycin and 10% charcoal-treated FBS. Cells were exposed to vehicle (0.01 wt.% DMSO) , β-estradiol as a positive control (10^-8 M and 10^-9 M in 0.01 wt.% DMSO) or galangin (10^-5 M, 10^-6 M and 10^-7 M in 0.01 wt.% DMSO) for 18 days. From day 4 ascorbic acid (50μg/ml), and from day 11 β-glycerolphosphate (5mM) were added to the culture medium. Every 3-4 days the medium was changed. […] Alkaline phosphatase (ALP) activity was determined kinetically in 25μl aliquots by colorimetric determination of the produced p-nitrophenol at 405 nm, using 6 mmol/L p-nitrophenylphosphate as a substrate at a 37°C and pH 10.5. To correct the ALP activity determination for cell quantity, the DNA content was measured in 100μl aliquots, using Hoechst 33258 and calibrated against a DNA standard (0.5-10μg/mL salmon sperm DNA). Fluorescence was measured at a wavelength of 355-460 nm. […]

Structure (SMILES): C[C@]12CC[C@@H]3c4ccc(O)cc4CC[C@H]3[C@@H]1CC[C@@H]2O [β-E, 17 β-estradiol]
- ERE/BRE ([1]; 10^-9M, ratio ERE stimulation/BRE stimulation): 10.2
- ERE/BRE ratio ([1]; result in words, galangin as compared to kaempherol and quercetin): high
- Fold increase of calcium (mean ± SEM) ([2]; 10^-8M): 1.9 ± 0.120^a fold induction
- Fold increase of calcium (mean ± SEM) ([2]; 10^-9M): 1.3 ± 0.064 fold induction

— patent EP1530968A1, “Galangin components for the maintenance of bone health and/or treatment, alleviaton and/or prevention of bone disorder” (N.V. Nutricia, priority 2003, dated 2005)
